Mito fusion yeast = mitochondrial division inhibition or fusion activation; S. cerevisiae fusion-defective mutant growth rescue, CellTiterGlo 48 h; Potency, µM (top dose mostly 46.1 µM), actives largely listed as activators; 320,000 compounds, 0.23% hits; AID 485298; note: nearly all actives have a fitted effect of over 45% in size
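Growth-rescue viability read-out: after 48 h at the non-permissive 37C in glycerol/ethanol YPEG, yeast mitochondrial fusion mutants are measured by CellTiterGlo luminescence; compounds (23 nl pinned per well) restoring growth score as division inhibitors or fusion activators.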
Nrf2 inh = blocks Nrf2 signaling. A549 ARE-Fluc reporter, luciferase luminescence, 18-24 h. 360,000 compounds, 2.1% hits. Potency, µM (titrated, usually from 46 µM), usual class: inhibitors; note: nearly all actives have a fitted effect of over 60% in size
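Cells were seeded and rested 2 h, then exposed to compounds for 18-24 h. CellTiter-Fluor was read first as a viability measure. BugLite was added 15 min before the final luminescent read of ARE-luciferase activity in A549 cells.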
miR-21 reporter = raises the signal of a miR-21 reporter | HeLa miR-21 FLuc reporter, luciferase, 48 h | Potency, µM (doses to about 38.3 µM) | 340,000 tested, under 10 active | AID 2288; active = well fitted rising curve with a large enough effect; inconclusive = small, poorly fitted or top-dose-only effect; inactive = no such curve, though single readings can be large or run the other way;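 also: miR-21 action dims this reporter so a rising signal means less miR-21 action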
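HeLa cells stably expressing CMV-driven firefly luciferase with a downstream miR-21 binding sequence, endogenously expressing miR-21, were treated with titrations (up to about 40uM final) for 48 hours at 37 degree Celsius. Luciferase luminescence was read after lysis.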
Nrf2 ARE act = activates Nrf2 signaling; Potency, µM (doses to about 46.1 µM), hits mostly activators; AID 624171; 410,000 compounds, 0.31% hits; AREc32 ARE-luciferase reporter (MCF7-derived line), luminescence, 24 h; note: nearly all actives have a fitted effect of over 65% in size
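Luciferase luminescence (Steady-Glo, 30 min at room temperature) served as the read-out of ARE activation in AREc32 cells treated with compounds for 24 hr at 37 deg C.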
A549 tox-1 = counter-screen for Nrf2 inhibitors: cytotoxicity in A549 cells; A549 ARE-Fluc cells, CellTiter-Fluor viability, 18-24 h; Potency, µM (titrated, usually from 46 µM), most hits filed as inhibitors; 390,000 compounds, 0.16% hits
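A549 ARE-Fluc cells in 5% FBS OPTI-MEM, 5000 cells/well, rested 2 h then exposed to compounds in concentration-response for 18-24 h at 37 °C. Viability by CellTiter-Fluor fluorescence (Ex 405/Em 525) after 30 min; luciferase luminescence (BugLite, 15 min, RT) read afterwards.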
FLuc enzyme inh = firefly luciferase inhibition, Nrf2 hit validation; 1,400 compounds, 4% hits; purified firefly luciferase, luminescence inhibition; Potency, µM (doses to about 57.5 µM), most hits filed as inhibitors; shares compounds with Nrf2 inh; note: nearly all actives have a fitted effect of over 65% in size
A549 tox-2 = counter-screen for Nrf2 inhibitors: cytotoxicity in A549 ARE cells. shares compounds with Nrf2 inh. 1,400 compounds, 2% hits. Potency, µM (highest dose often 46.1 µM), hits mostly inhibitors. A549 ARE-Fluc cells, cytotoxicity counterscreen;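 note: cells exposed to compounds for 18 to 24 hours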
ARE-Fluc inh = Nrf2 inhibition confirmed, A549 ARE-luciferase; shares compounds with Nrf2 inh; A549 ARE-firefly luciferase reporter, luminescence; Potency, µM (series often up to 46.1 µM), actives largely listed as inhibitors; 1,400 compounds, 74% hits; note: nearly all actives have a fitted effect of over 65% in size
Numbers stand for hits; i = inactive; ? = inconclusive; nt = no result given. The list is not random: actives were taken first. Their share in the collection is about 2.3%. Unless noted, calls come from the whole dose curve; as a rule, active = well fitted curve in the direction sought with a large enough effect; inconclusive = small, poorly fitted or top-dose-only effect, or another doubt; inactive = no such curve, though single readings can be large; an effect the other way counts as inactive or inconclusive.

SMILES	Mito fusion yeast	Nrf2 inh	miR-21 reporter	Nrf2 ARE act	A549 tox-1	FLuc enzyme inh	A549 tox-2	ARE-Fluc inh
Cc1ccc(CNC(=O)Cc2ccc(NC(=O)N3CCSc4ncccc43)cc2)cc1	nt	i	i	i	i	nt	nt	nt
CC(=O)c1cccc(NC(=O)N2CCCCCC2)c1	i	i	i	i	i	nt	nt	nt
CSc1cccc(NS(=O)(=O)c2ccc(C(C)=O)cc2)c1	i	4.61µM	i	i	i	i	i	nt
CC(=O)c1cccc(NS(=O)(=O)c2ccc(NC(=O)N3CCCCC3)cc2)c1	i	8.2µM	i	i	i	i	i	14.6µM
COc1ccc(CCNC(=O)CCc2c(C)nc3cc(-c4ccc(Cl)cc4)nn3c2C)c(OC)c1	nt	?	i	i	i	nt	nt	nt
CN(c1ccccc1)c1nc(C#N)nc(N2CCOCC2)n1	nt	8.2µM	nt	nt	i	i	i	?
CCOc1ccccc1NC(=O)c1cnc2n(c1=O)CCS2	i	i	i	i	i	nt	nt	nt
O=C(Nc1ccc(Oc2ccccc2)cc1)c1cnc2n(c1=O)CCS2	i	?	i	i	i	i	i	2.31µM
COC(=O)c1c(SC)nc2ccccc2c1OCc1ccc(Cl)cc1	nt	i	i	i	i	nt	nt	nt
CC1CCCC=CC2CC(OC(=O)CN(C)C)CC2C(O)C=CC(=O)O1 (stereo unspecified)	nt	0.206µM	nt	i	?	i	?	0.411µM
O=C(Nc1cc(S(=O)(=O)N2CCCCC2)ccc1Cl)c1ccccc1NS(=O)(=O)c1ccc(F)cc1	i	3.66µM	?	i	?	i	?	4.61µM
Cc1cc(C)cc(NC(=O)c2cccc(N3CCCS3(=O)=O)c2)c1	nt	?	i	i	i	nt	nt	nt
Cc1ccccc1NC1=C(Cl)C(=O)OC1OC(=O)c1ccccc1C (stereo unspecified)	i	1.64µM	i	?	?	i	i	?
Cc1cc(Nc2ccccc2C(=O)O)n(-c2ccc([N+](=O)[O-])cc2)n1	i	6.51µM	i	i	?	i	i	?
Cc1ccc(-n2c(=O)c3oc4ccccc4c3n(Cc3cccc(F)c3)c2=O)cc1C	nt	i	i	i	i	nt	nt	nt
CN1/C(=C\C=[N+](C)c2ccccc2)C(C)(C)c2ccccc21	i	0.82µM	?	i	9.2µM	i	?	1.16µM
CN1/C(=C\C=N\O)C(C)(C)c2ccccc21	i	i	i	i	i	nt	nt	nt
CCOc1ccc(CCNCc2c(C(=O)O)n(Cc3ccc(C)cc3)c3cc(OC)ccc23)cc1	nt	i	i	i	i	nt	nt	nt
O=C1CCCCCN1C(=O)c1ccccc1	nt	i	nt	i	i	nt	nt	nt
CC(C)(C)c1ccc(C(=O)N2CCCCCC2=O)cc1	i	9.2µM	?	i	i	?	i	3.66µM
Cc1ccnc(SCC(=O)Nc2sc3c(c2C#N)CCCC3)n1	i	9.2µM	i	i	i	i	i	nt
Cc1csc(SCC(=O)Nc2sc3c(c2C#N)CCC3)n1	i	i	i	i	i	nt	nt	nt
Cc1cc(C)c(OC2(c3ccccc3)OC(=O)c3ccccc32)c(C)c1 (stereo unspecified)	i	9.2µM	i	i	i	i	i	i
Cc1cccc(C)c1OC1(c2ccccc2)OC(=O)c2ccccc21 (stereo unspecified)	i	?	i	i	?	nt	nt	nt
Cc1ccc(-c2nnc(SCC(=O)NC3CCCC3)nc2-c2ccc(C)cc2)cc1	nt	1.84µM	i	i	?	i	i	i
SMILES	Mito fusion yeast	Nrf2 inh	miR-21 reporter	Nrf2 ARE act	A549 tox-1	FLuc enzyme inh	A549 tox-2	ARE-Fluc inh
O=C(CSc1nnc(-c2ccc(Cl)cc2)c(-c2ccc(Cl)cc2)n1)NC1CCCC1	nt	nt	i	i	i	nt	nt	nt
CCOC(=O)Cn1c(=O)n(C2CCCCC2)c2nc(-c3ccccc3Cl)nc(C(N)=O)c21	nt	nt	i	i	i	nt	nt	nt
CCCn1c2ccccc2c2cnn(CC(=O)N3CCN(c4ccccc4)CC3)c(=O)c21	nt	nt	i	i	i	nt	nt	nt
Cn1c(N)c(C(=O)CSc2nn(-c3ccccc3)c(=S)s2)c(=O)n(C)c1=O	i	7.31µM	nt	i	i	i	i	9.2µM
CC(Sc1nn(-c2ccc(F)cc2)c(=S)s1)C(=O)c1c(N)n(C)c(=O)n(C)c1=O (stereo unspecified)	?	?	nt	i	i	nt	nt	nt
CC1=C(C(=O)NC2CCCc3c2cnn3-c2cccc(C)c2C)OCCO1 (stereo unspecified)	i	7.31µM	i	i	i	i	i	11.6µM
Cc1cc(C)n(-c2nc3ccccc3nc2Nc2ccc(Cl)c(C(=O)OC(C)C)c2)n1	nt	i	i	i	i	nt	nt	nt
COc1ccc(NS(=O)(=O)c2ccc(NC(=O)c3ccc(N(C)S(C)(=O)=O)cc3)cc2)c(OC)c1	i	1.84µM	i	i	i	i	i	2.59µM
COc1ccc(NS(=O)(=O)c2ccc(NC(C)=O)cc2)c(OC)c1	i	i	i	i	i	nt	nt	nt
CC12CCC(=O)C=C1CCC1C2CCC2(C)C1CC[C@]2(O)C(=O)CO (stereo partly specified)	i	?	i	i	i	nt	nt	nt
CC(=O)OCC(=O)[C@@]1(O)CC[C@H]2[C@@H]3CCC4=CC(=O)CC[C@]4(C)[C@H]3C(=O)C[C@@]21C	i	i	i	i	i	nt	nt	nt
CC(=O)OCC(=O)[C@@]1(O)CC[C@H]2[C@@H]3CCC4=CC(=O)CC[C@]4(C)[C@H]3[C@@H](O)C[C@@]21C	i	0.0411µM	i	i	i	i	i	0.0731µM
CC(C)(CNC(=O)CO/N=C1/C=C2CCC3C(C(O)C[C@@]4(C)C3CC[C@]4(O)C(=O)CO)[C@@]2(C)CC1)C(O)C(=O)O (stereo partly specified)	i	1.84µM	i	i	i	i	i	nt
C[C@]12CCC(=O)C=C1CC[C@@H]1[C@@H]2[C@@H](O)C[C@@]2(C)[C@H]1CC[C@]2(O)C(=O)COC(=O)CCC(=O)O	i	0.326µM	i	i	i	i	i	0.291µM
CCC(CC)C(=O)OCC(=O)C1(O)CCC2C3CCC4=CC(=O)CCC4(C)C3C(O)CC21C (stereo unspecified)	nt	0.326µM	nt	i	i	i	i	0.103µM
COc1ccc(OC)c(C2=Nn3c(nnc3-c3cccc(OC)c3OC)SC2)c1	nt	i	nt	nt	i	nt	nt	nt
CCOc1ccccc1NC(=O)CSc1nnc(N)s1	nt	?	i	i	i	nt	nt	nt
CC12CCC(=O)C=C1CCC1C2CCC2(C)C1CCC2(O)C(=O)CO (stereo unspecified)	nt	?	nt	i	i	nt	nt	nt
CC1CC2(C)C(=CC1=O)CCC1C2C(O)CC2(C)C1CCC2(O)C(=O)CO (stereo unspecified)	nt	0.116µM	nt	i	i	i	i	0.184µM
